Source: patent US8658639B2, “N-substituted-cyclic amino derivative” (Dainippon Sumitomo Pharma Co., Ltd, priority 2009, dated 2014)

Chains of the proteins cited; added tags and fusions are not shown. Residues count along the entry.
UniProt P00797, 67-406 limits assumed: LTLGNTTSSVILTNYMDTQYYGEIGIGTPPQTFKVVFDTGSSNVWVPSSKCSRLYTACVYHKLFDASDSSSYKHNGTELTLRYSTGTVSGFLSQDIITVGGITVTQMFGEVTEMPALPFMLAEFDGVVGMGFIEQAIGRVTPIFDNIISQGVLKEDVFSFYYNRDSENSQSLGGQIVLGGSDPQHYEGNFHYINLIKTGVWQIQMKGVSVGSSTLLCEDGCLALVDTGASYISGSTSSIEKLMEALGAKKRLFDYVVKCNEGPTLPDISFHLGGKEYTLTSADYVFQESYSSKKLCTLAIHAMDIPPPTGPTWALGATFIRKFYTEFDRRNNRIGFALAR

Target: Recombinant human renin (Homo sapiens, UniProt P00797)
Assay: In vitro renin inhibitory activity assay
Conditions: read-out: Human renin inhibitory activity IC50; recombinant human renin 4.2 ng/mL, substrate 4 μM, 37° C., one hour, pH 7.4
Protocol: Experiment 1: In Vitro Renin Inhibitory Activity Assay
Recombinant human renin (4.2 ng/mL) was reacted in 0.1M HEPES buffer (pH 7.4) containing 0.1M NaCl, 1 mM EDTA and 0.1 mg/mL BSA together with a substrate and a test compound at 37° C. for one hour. As the substrate, Arg-Glu(EDANS)-Ile-His-Pro-Phe-His-Leu-Val-Ile-His-Thr-Lys(DABCYL)-Arg (SEQ ID NO: 1) or DABCYL-γ-Abu-Ile-His-Pro-Phe-His-Leu-Val-Ile-His-Thr-EDANS (SEQ ID NO: 2) was added in such an amount so that the final concentration thereof became 4 μM. The elevated fluorescence intensity at the exciting wavelength 340 nm and the fluorescence wavelength 500 nm was measured by a fluorescence plate reader. The concentration of a test compound to be needed to inhibit an enzyme activity in the presence of a test compound in several concentrations by 50% was calculated as an IC50 value. The test compounds were diluted in DMSO and used in this Experiment.

IC50: 58 nM
Compound: CCC(=O)NCCN1C(=O)C2(CCC2)Oc2cc(C)c(C(=O)N(C(C)C)[C@@H]3CCCN(C(=O)OC(C)OC(=O)OC)C3)cc21 (stereo partly shown)
